Entries after “also recorded” stand apart in the source; their conditions may differ.
Columns and labels:
[1] = SARD compound serum concentrations in Hershberger rats (LC-MS/MS)
[2] = test system: Intact Sprague Dawley rats; test: Hershberger assay, seminal vesicles and prostate weights; conditions: for (Prostate) % diff / (S.V.) % diff: 20 mg/kg Hershberger experiment; for Seminal vesicles weight reduction / in vivo AR antagonism, in words: compared to 1002 or castration
[3] = test system: full length AR; test: LNCaP or AD1 degradation (full length AR, Western blot); assay type: cell-based; conditions: for SARD Activity Full Length % inhibition at 1 μM: first of two values in the cell; for SARD Activity Full Length % inhibition at 10 μM: second of two values in the cell
[4] = test system: AR splice variants
[5] = 20 mg/kg by mouth daily for 13 days

| SMILES | Serum Conc. ([1]; Table 4, rats, 20 mg/kg) | (Prostate) % diff ([2]; rats) | (S.V.) % diff ([2]; rats) | Seminal vesicles weight reduction / in vivo AR antagonism, in words ([2]; rats, 20 mg/kg) | SARD Activity Full Length % inhibition at 1 μM [3] | SARD Activity Full Length % inhibition at 10 μM [3] | SARD Activity S.V. % inhibition at 10 μM [4] | further results |
| --- | --- | --- | --- | --- | --- | --- | --- | --- |
| C[C@](O)(Cn1cc(Cl)cn1)C(=O)Nc1ccc(C#N)c(C(F)(F)F)c1 [Compound 1049] | 125 nM | .20% | .65% | marginally improved |  |  |  |  |
| C[C@](O)(Cn1cc(-c2ccc(F)cc2)nn1)C(=O)Nc1ccc(C#N)c(C(F)(F)F)c1 [Compound 1045] | 1209 nM | .35% | .45% | performed equivocally; also recorded: equivocal |  |  |  | Serum Conc. ([1]; Table 2, rats, 20 mg/kg daily for 13 days): 1209 nM; Degradation (% at 3 μm) ([3]; 3 μm): 47%; Decrease in Prostate Weight in Rats, % difference from 1002 [2, 5]: 30%; Decrease in Prostate Weight in Rats, % inhibition [2, 5]: 26%; Decrease in Seminal Vesicles Weights in Rats, % difference from 1002 [2, 5]: 12%; Decrease in Seminal Vesicles Weights in Rats, % inhibition [2, 5]: 46%; Prostate weights, in words ([2]; rats, 20 mg/kg, compared to 1002): performed better than 1002 |
| C[C@](O)(Cn1nc(F)c2cc(F)ccc21)C(=O)Nc1ccc(C#N)c(C(F)(F)F)c1 [Compound 98, (S)-N-(4-Cyano-3-(trifluoromethyl)phenyl)-3-(3,5-difluoro-1H-indazol-1-yl)-2-hydroxy-2-methylpropanamide] |  |  |  |  | 37% | 81% |  |  |
| CN(C[C@](C)(O)C(=O)Nc1ccc(C#N)c(C(F)(F)F)c1)c1ccc(C#N)c(-c2ccccc2)c1 [Compound 17] |  |  |  |  |  |  | 80% | SARD Activity Full Length % inhibition at 1, 10 μM ([3]; single value given, concentration not told apart, with 0.1 nM R1881, 24 h): 80% |
| C[C@](O)(Cn1ncc(Cl)c1Br)C(=O)Nc1ccc(C#N)c(C(F)(F)F)c1 [Compound 1067] |  |  |  |  | 62% | 88% | 73% |  |

— patent US20210196678A1, “SELECTIVE ANDROGEN RECEPTOR DEGRADER (SARD) LIGANDS AND METHODS OF USE THEREOF” (University of Tennessee Research Foundation, priority 2018, published 2021)
